These are literature values, as cited in US6482800B1, “Methods to stimulate angiogenesis” (The University of Southern California, priority 1998, dated 2002).

The data set addresses T1, AT2 receptor (Homo sapiens, UniProt P50052).
T1 sequence (P50052 1-363): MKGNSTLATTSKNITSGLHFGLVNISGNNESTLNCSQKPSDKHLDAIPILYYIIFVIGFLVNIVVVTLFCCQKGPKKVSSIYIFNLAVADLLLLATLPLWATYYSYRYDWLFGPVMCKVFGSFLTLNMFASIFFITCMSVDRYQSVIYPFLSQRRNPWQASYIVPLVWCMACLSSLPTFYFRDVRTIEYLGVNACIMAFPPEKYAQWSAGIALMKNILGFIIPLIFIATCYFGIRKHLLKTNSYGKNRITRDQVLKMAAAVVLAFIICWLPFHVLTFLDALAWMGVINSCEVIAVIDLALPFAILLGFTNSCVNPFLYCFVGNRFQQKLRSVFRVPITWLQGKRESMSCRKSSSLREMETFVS
The settings on record: experimental models of the cited literature; cited from earlier work.

With “Asp-Arg-Val-Tyr-Ile-Xaa-Pro-Phe [(p-NH2-Phe) 6-AII]”, the Binding characteristics result is listed as “comparable to AT2 antagonists”.
